Assay: Inhibition of tubulin polymerization

**Q.** For `COc1cc2c(c(OC)c1OC)-c1ccc(OC)c(=O)cc1[C@@H](NC(C)=O)CC2` [COLCHICINE], which IC50 is on record?
**A.** 500 nM

— ChEMBL document CHEMBL1151881, “Discovery of substituted N'-(2-oxoindolin-3-ylidene)benzohydrazides as new apoptosis inducers using a cell- and caspase-based HTS assay” (Bioorg Med Chem Lett, 2009)
